Where two headings read alike, the source gives them in different places. Marks after values point to notes of the source that are not given here.
How the values were obtained:
[1] = logD7.4 by shake-flask method; details: n-octanol/aqueous buffer pH 7.4; shake-flask assay run by Analiza
[2] = not given; remark: listed apart in the source
[3] = Parallel artificial membrane permeability assay; details: log of the apparent permeability coefficient

PAMPA logPapp [3]	Compound	% Stability aq. buffer pH 7.4–7.6 [%]	logD7.4 [1]	PAMPA % retention (membrane retention) [2] [E–2%]	PAMPA Pe (effective permeability) [2] [E–6 cm/s]	PAMPA logPapp [2]
	cis-N-(1-Oxido-3-phenethylthietan-3-yl)benzenesulfonamide [Compound 22]	90.3	0.76^†	5.07	2.91	−5.54
−5.54	CN(C)S(=O)(=O)Nc1cc(-c2ccccc2)on1 [Compound 29, N-(5-Phenylisoxazol-3-yl)-N,N-dimethylaminesulfonamide]					

Source: paper PMC8105289 (European journal of medicinal chemistry, 2021)
